{"source": "paper PMC11903455", "about": "(Frontiers in Pharmacology, 2025)", "system": "Serotonin transporter (5-HTT)", "assay": "ELISA of brain tissue: 5-HTT", "type": "in vivo, rat", "protocol": "Anxiety-like depression rat model is induced by chronic induction of corticosterone. Five-week-old SD male rats (8/cage) randomly received 0.45% soluble Corticosterone suspension in β-cyclodextrin. The number of rats in each group has been supplemented in part 1.2 of the manuscript method. Specifically described as “The rats were randomly divided into 7 groups, 8 rats in each group, a total of 56 rats. […] The model was established by subcutaneous injection of corticosterone (20 mg⋅kg^−1) for 21 consecutive days. […] The control group and model group were given the same volume of normal saline. Solution preparation methods are described in Supplementary Material S1.1.\nThe contents of Serotonin transporter (5-HTT, JW.RA1057), dopamine (DA, JW.RA1621), γ-aminobutyric acid (GABA, JW.RA1389) and noradrenaline (NA, JW.RA2154) in the hippocampus were measured by ELISA kit. The tissue samples were added to PBS low-temperature homogenate according to 1:10, and the homogenate was centrifuged at 10,000 rpm at 4 °C […] for 10 min. The supernatant was taken to detect the content of the sample.", "note": "Where a name gives a salt, the structure may show the parent alone."}
{"smiles": "Fc1ccc([C@@H]2CCNC[C@H]2COc2ccc3c(c2)OCO3)cc1", "note": "[Positive, paroxetine hydrochloride, reference compound]", "values": [{"measurement": "content of 5-HTT compared with the model group", "setting": "crocin I low-, medium-, high-dose, gardenia extract, positive drug, P < 0.001", "result": "significantly reduced"}, {"measurement": "5-HTT expression level in brain tissue", "setting": "gardenia extract 0.9 g/kg, positive drug paroxetine hydrochloride 5 mg/kg", "result": "256.14 ± 30.37", "unit": "ng/mL"}, {"measurement": "content of 5-HTT compared with the control group", "setting": "positive drug group", "result": "no significant difference"}]}
